# The list shows a part of the results. Activity calls are given as the source filed them.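 The calls were made as follows: active = activation factor at least 2 at 20 µM; inactive = the rest.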
# By UniProt entry, the sequences of proteins in these tests, tags left out.
# UniProt P05186, whole entry: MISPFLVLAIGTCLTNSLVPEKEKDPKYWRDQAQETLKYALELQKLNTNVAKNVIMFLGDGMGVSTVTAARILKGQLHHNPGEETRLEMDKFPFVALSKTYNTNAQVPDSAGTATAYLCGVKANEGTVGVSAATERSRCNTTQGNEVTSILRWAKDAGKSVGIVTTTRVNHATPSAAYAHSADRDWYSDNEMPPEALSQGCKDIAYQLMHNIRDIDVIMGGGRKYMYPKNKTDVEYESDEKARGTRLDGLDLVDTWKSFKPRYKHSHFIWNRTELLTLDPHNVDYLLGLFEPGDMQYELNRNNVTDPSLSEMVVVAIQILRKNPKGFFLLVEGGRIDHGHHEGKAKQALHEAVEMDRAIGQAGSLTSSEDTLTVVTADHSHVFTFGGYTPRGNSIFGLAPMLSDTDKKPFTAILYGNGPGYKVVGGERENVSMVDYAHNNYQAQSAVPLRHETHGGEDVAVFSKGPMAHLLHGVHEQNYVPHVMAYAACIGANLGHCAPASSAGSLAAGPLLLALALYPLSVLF
# Target: Alkaline phosphatase, tissue-nonspecific isozyme (Homo sapiens) (UniProt P05186)
# Experiment: TNAP activators at high phosphate acceptor level, primary screen, biochemical, luminescence, uHTS (AID 1136)
# Settings: purified TNAP, CDP-star luminescence, 1 M DEA, 30 min, at 20 µM; active compounds read high, 0 = EDTA background, 1 = DMSO-only activity
row,SMILES,activation factor
1,Cc1cc(SC(NC(=O)c2ccccc2)C(Cl)(Cl)Cl)nc(C(C)C)n1 (stereo unspecified),inactive
2,CP(=S)(Nn1cnnc1)Oc1ccccc1 (stereo unspecified),inactive
3,CP(=O)(Nc1ccccc1Br)Oc1ccccc1 (stereo unspecified),inactive
4,O=P(Nc1ccccn1)(c1cccc2ccccc12)c1cccc2ccccc12,inactive
5,Cc1cc(SC(NC=O)C(Cl)(Cl)Cl)ncn1 (stereo unspecified),inactive
6,COc1ccccc1OP(C)(=O)Nc1ccccc1 (stereo unspecified),inactive: 1.1
7,Cc1cccc(C)c1OP(C)(=O)Nc1ccc(SC(F)(F)F)cc1 (stereo unspecified),inactive
8,CP(=O)(Oc1ccccc1)OC(c1ccccc1)C(F)(F)F (stereo unspecified),inactive
9,O=C(COc1ccccc1)OC1CN2CCC1CC2 (stereo unspecified),inactive
10,CP(=O)(NC(=O)Nc1ccccc1)Oc1ccccc1 (stereo unspecified),inactive: 1.1
11,Cc1cc(C)cc(OP(C)(=O)Nc2ccc(SC(F)(F)F)cc2)c1 (stereo unspecified),inactive
12,CCOC(=O)c1ccc(NP(C)(=O)Oc2ccc(OC)cc2)cc1 (stereo unspecified),inactive
13,CCOP(C)(=S)SCC(=O)NC(C)C(=O)O (stereo unspecified),inactive
14,CP(=O)(Nc1ccccn1)Oc1ccc(Cl)cc1 (stereo unspecified),inactive
15,Cc1cc(=O)[nH]c(N[N+](=O)[O-])n1,inactive
16,CCN(CC)CCCOC(=O)C(O)(c1ccccc1)c1ccccc1,inactive
17,Cc1c2c(nc3ccccc13)SC(C(Cl)Cl)C2 (stereo unspecified),inactive
18,COc1ccc(N/C(=N/P(=O)(N2CCOCC2)N2CCOCC2)N2CCOCC2)cc1,inactive
19,O=[N+]([O-])c1ccc2c(c1)C=Nc1ccccc1O2,inactive: 0.8
20,Cc1ccc2nc3c(c(C)c2c1)CC(C(Cl)Cl)S3 (stereo unspecified),inactive
21,CC(C)(C)c1ccc(OP(C)(=O)Nc2ccc(SC(F)(F)F)cc2)cc1 (stereo unspecified),inactive
22,Cc1cccc(C)c1OP(C)(N)=O (stereo unspecified),inactive

row,SMILES,activation factor
1,COc1ccccc1OP(C)(=O)Nc1ccc(C)cc1 (stereo unspecified),inactive
2,Cc1ccc(NP(C)(=O)Oc2ccccc2)c(C)c1 (stereo unspecified),inactive
3,CCOC(=O)c1ccc(NP(C)(=O)Oc2ccccc2)cc1 (stereo unspecified),inactive
4,ClCCSc1nnc(-c2cccnc2)o1,inactive
5,Cc1cc(C)cc(OP(C)(N)=O)c1 (stereo unspecified),inactive: 1.1
6,COc1ccccc1OP(C)(=O)Nc1cc(Cl)ccc1C (stereo unspecified),inactive
7,CC(C)NC(=O)NP(=O)(Oc1ccccc1)Oc1ccccc1,inactive
8,CCN(CC)C(=S)SC(NC=O)C(Cl)(Cl)Cl (stereo unspecified),inactive
9,COc1ccc(OP(C)(=O)Nc2cccc(F)c2)cc1 (stereo unspecified),inactive
10,O=P(Nc1nccs1)(Oc1ccccc1)Oc1ccccc1,inactive
11,O=P(Nc1nccs1)(c1ccccc1)c1nc2ccccc2s1 (stereo unspecified),inactive
12,CC1=NCCc2c1[nH]c1ccccc21.O=[N+]([O-])c1cc([N+](=O)[O-])c(O)c([N+](=O)[O-])c1,inactive: 0.9
13,CCOP1(=S)c2c(C)nn(CCC#N)c2N=C(c2ccc(F)cc2)N1C (stereo unspecified),inactive
14,COc1cc(C(=O)NCC2(N3CCOCC3)CCCCC2)cc(Cl)c1OC(C)C,inactive
15,CCOC(=O)c1ccc(NP(C)(=O)Oc2cc(C)cc(C)c2)cc1 (stereo unspecified),inactive
16,Cc1cccc(OCC(=O)OC2CN3CCC2CC3)c1 (stereo unspecified),inactive
17,Cc1cc(C)cc(OP(C)(=O)Nc2ccc(C)cc2C)c1 (stereo unspecified),inactive
18,Cc1ccc(C)c(NP(C)(=O)Oc2ccccc2)c1 (stereo unspecified),inactive
19,Cc1cc(C)cc(OP(C)(=O)Nc2ccccn2)c1 (stereo unspecified),inactive
20,CP(=O)(Nc1cccc(Br)c1)Oc1ccccc1 (stereo unspecified),inactive
21,CCOP(=O)(Nc1cccc2ccccc12)OCC,inactive
22,O=P1(Nc2ccccn2)COc2ccccc2OC1,inactive

row,SMILES,activation factor
1,O=[N+]([O-])c1cc([N+](=O)[O-])c(-n2nnc3ccccc32)c([N+](=O)[O-])c1,inactive
2,Clc1n[nH]nc1-c1nn[nH][15n]1,inactive
3,Cc1nc2ccc3ccccc3c2s1.O=[N+]([O-])c1cc([N+](=O)[O-])c(O)c([N+](=O)[O-])c1,inactive
4,CC(C)/C=N\N=C(\N)N[N+](=O)[O-],inactive
5,COc1cc(C2NCCC3(OCCO3)C2(C)C)cc(OC)c1OC.O=[N+]([O-])c1cc([N+](=O)[O-])c(O)c([N+](=O)[O-])c1 (stereo unspecified),inactive
6,Cc1nn(-c2ccccc2)c2c1P(=O)(N1CCOCC1)N(C)C(c1ccccc1)=N2 (stereo unspecified),inactive
7,COc1ccccc1OP(C)(=O)Nc1c(C)cccc1C (stereo unspecified),inactive
8,CN1CCCCC1COC(=O)C1(O)c2ccccc2CCc2ccccc21 (stereo unspecified),inactive
9,O=P1(Nc2ncccn2)COc2ccccc2OC1,inactive
10,Cc1ccc(OCC(=O)OC2CN3CCC2CC3)cc1 (stereo unspecified),inactive
11,CCCOc1ccc(NP(C)(=O)Oc2ccc(Cl)cc2)cc1 (stereo unspecified),inactive
12,CP(=O)(Nc1ccc(SC(F)(F)F)cc1)Oc1ccccc1 (stereo unspecified),inactive
13,COc1ccc(OP(C)(=O)Nc2cccc(Br)c2)cc1 (stereo unspecified),inactive: 1.1
14,O=P(Nc1ccccn1)(c1ccc(Br)cc1)c1ccc(Br)cc1,inactive
15,CN(C)CCOC(=O)C(O)(c1ccccc1)C1CCCCC1 (stereo unspecified),inactive
16,COc1ccc(NP(C)(=O)Oc2ccccc2OC)cc1 (stereo unspecified),inactive
17,CC(=O)NC(SC(=S)N(C)C)C(Cl)(Cl)Cl (stereo unspecified),inactive
18,O=[N+]([O-])c1cc([N+](=O)[O-])c(NCC2CCS(=O)(=O)C2)c([N+](=O)[O-])c1 (stereo unspecified),inactive: 0.9
19,O=C(OC1CN2CCC1CC2)c1cccc(Cl)c1 (stereo unspecified),inactive
20,CC(C)C(=O)NC(Sc1ccccc1)C(Cl)(Cl)Cl (stereo unspecified),inactive
21,O=P(Nc1nccs1)(c1ccccc1)c1ccccc1,inactive
22,CCOP(C)(=S)SCC(=O)NC(C)(CC)C(=O)O (stereo unspecified),inactive

row,SMILES,activation factor
1,c1nnnn1CCn1cnnn1,inactive
2,CP(=O)(Nc1ccc2c(c1)OCCO2)Oc1ccccc1 (stereo unspecified),inactive
3,Cc1ccccc1NP(C)(=O)Nc1ccccc1C,inactive
4,O=P1(Nc2nc3ccc(Cl)cc3s2)COc2ccccc2O1 (stereo unspecified),inactive
5,CCOc1ccc(C2=NCC(CBr)S2)cc1 (stereo unspecified),inactive
6,CP(=O)(Nc1ccccc1F)Oc1ccccc1 (stereo unspecified),inactive: 1.1
7,CC(C)(C)C(=O)NC(Sc1ccccc1)C(Cl)(Cl)Cl (stereo unspecified),inactive
8,CC(C)c1ccc(OP(C)(=O)Nc2ccc(SC(F)(F)F)cc2)cc1 (stereo unspecified),inactive
9,O=C(OCCN1CCN(CCOCc2ccccc2)CC1)C(O)(c1ccccc1)c1ccccc1,inactive
10,CC(=O)Nc1ccc(Oc2c([N+](=O)[O-])cc([N+](=O)[O-])cc2[N+](=O)[O-])cc1,inactive
11,CCNC(=S)/N=C(\N)N[N+](=O)[O-],inactive
12,O=C(NC1CCS(=O)(=O)C1)NP(=S)(Oc1ccccc1)Oc1ccccc1 (stereo unspecified),inactive
13,c1ccc(-c2nn[nH]n2)c(-c2nn[nH]n2)c1,inactive
14,CCOC(=O)NC(Sc1ccccc1)C(Cl)(Cl)Cl (stereo unspecified),inactive
15,CCOC(=O)c1ccc(NP(C)(=O)Oc2ccc(F)cc2)cc1 (stereo unspecified),inactive
16,COc1ccc(OP(C)(=O)Nc2ccc(SC(F)(F)F)cc2)cc1 (stereo unspecified),inactive: 1.1
17,COC(=O)c1cc2c(s1)N=C(c1ccccc1)N(C)P2(=O)N1CCOCC1 (stereo unspecified),inactive
18,CC(=O)NC(SC(=S)N(CC(C)C)CC(C)C)C(Cl)(Cl)Cl (stereo unspecified),inactive
19,Cc1ccc(OP(=O)(Nc2ccccn2)Oc2ccc(C)cc2)cc1,inactive
20,CCN(CC)CCCOC(=O)C(O)(c1ccccc1)C1CCCCC1 (stereo unspecified),inactive
21,CCC(=O)N1C2C3N(C(=O)CC)C1C1N(C(=O)CC)C(C(N1C(=O)CC)N3C(=O)CC)N2C(=O)CC,inactive
22,CP(=O)(Nc1ccccc1)Oc1ccc(F)cc1 (stereo unspecified),inactive

row,SMILES,activation factor
1,Cc1cc(C)cc(OP(C)(=O)Nc2cccc(C(F)(F)F)c2)c1 (stereo unspecified),inactive
2,Cc1cc(SC(NC(=O)c2ccc(F)cc2)C(Cl)(Cl)Cl)ncn1 (stereo unspecified),inactive
3,CCOP(=O)(Nc1ccccc1)OCC,inactive
4,COc1ccccc1OP(C)(=O)Nc1ccc(C)c(C)c1 (stereo unspecified),inactive
5,COc1ccc(OP(C)(=O)Nc2ccccc2Br)cc1 (stereo unspecified),inactive
6,Cc1nc2ccc3ccccc3c2o1.O=[N+]([O-])c1cc([N+](=O)[O-])c(O)c([N+](=O)[O-])c1,inactive
7,CCN(N=Nc1nonc1N)c1nonc1N,inactive
8,CP(=O)(Nc1ccc(Cl)cc1Cl)Oc1ccccc1 (stereo unspecified),inactive
9,CP(=O)(OCCOc1ccccc1)OCCOc1ccccc1,inactive
10,NC(=O)c1cc([N+](=O)[O-])cc([N+](=O)[O-])c1N,inactive
11,Cc1ccc(N/C(=N/P(=O)(N2CCOCC2)N2CCOCC2)N2CCOCC2)cc1,inactive
12,COc1ccccc1OP(=O)(Nc1ccc(C)cn1)Oc1ccccc1OC,inactive
13,COc1ccc(OP(C)(=O)Nc2ccccn2)cc1 (stereo unspecified),inactive: 1.1
14,CN1CCCC(OC(=O)C(c2ccccc2)c2ccccc2)C1 (stereo unspecified),inactive
15,Clc1ccc(Cl)c(NC2=NCC(CBr)S2)c1 (stereo unspecified),inactive
16,CN(C)CCOC(=O)C(O)(c1ccccc1)C1CCCC1 (stereo unspecified),inactive
17,Cc1c(NP(C)(=O)Oc2ccc(C(C)C)cc2)c(=O)n(-c2ccccc2)n1C (stereo unspecified),inactive: 1.1
18,CC(C)CC(=O)NC(Sc1ccc(Cl)cc1)C(Cl)(Cl)Cl (stereo unspecified),inactive
19,O=[N+]([O-])c1cc([N+](=O)[O-])c(Nc2ccccn2)c([N+](=O)[O-])c1,inactive: 0.7
20,Oc1ccccc1CNc1ccccn1,inactive
21,O=C(NC(Sc1ccncn1)C(Cl)(Cl)Cl)c1ccccc1 (stereo unspecified),inactive
22,Cc1c2non([O-])c-2c(C)[n+](=O)[n+]1[O-],inactive

row,SMILES,activation factor
1,CP(=O)(Nc1ccccn1)Oc1ccccc1 (stereo unspecified),inactive
2,COc1ccccc1OP(C)(=O)Nc1ccc(C)cc1C (stereo unspecified),inactive
3,CCc1ccc(OP(C)(=O)O)cc1,inactive
4,CCN(CC)CC(O)COC(=O)C(O)(c1ccccc1)C1CCCCC1 (stereo unspecified),inactive
5,COc1ccc(C2=NCC(CBr)S2)cc1 (stereo unspecified),inactive
6,COc1ccc(OP(C)(=O)Nc2ccc(Br)cc2)cc1 (stereo unspecified),inactive: 1.1
7,O=[N+]([O-])c1cccc2n[nH]nc12,inactive
8,CC(=O)N1C2C3N(C(C)=O)C1C1N(C(C)=O)C(C(N1C(C)=O)N3C(C)=O)N2C(C)=O,inactive
9,COc1ccccc1OP(C)(=O)Nc1c(C)n(C)n(-c2ccccc2)c1=O (stereo unspecified),inactive
10,Cc1ccc(NP(=O)(Oc2ccccc2)Oc2ccccc2)nc1,inactive
11,CP(=O)(Oc1ccccc1)N1CCOC1=O (stereo unspecified),inactive
12,CCc1ccc(OP(C)(=O)Nc2cccnc2)cc1 (stereo unspecified),inactive
13,COc1ccccc1OP(C)(=O)Nc1ccccc1Br (stereo unspecified),inactive
14,CC(C)(C)c1ccc(OP(C)(=O)O)cc1,inactive
15,CCN(/C(=N/P(=O)(N1CCOCC1)N1CCOCC1)N1CCOCC1)c1ccc(OC)cc1,inactive
16,CP(=O)(Nc1ccc(Cl)cc1)Oc1ccc(F)cc1 (stereo unspecified),inactive: 1.1
17,CN(C)C(=O)c1c([N+](=O)[O-])cc([N+](=O)[O-])cc1[N+](=O)[O-],inactive
18,CN(C)C(=O)OCCc1n(C)cc[n+]1C,inactive
19,CCOC(=O)c1ccc(NP(C)(=O)Oc2ccc(Cl)cc2)cc1 (stereo unspecified),inactive
20,CP(=O)(OC12CC3CC(CC(C3)C1)C2)OC12CC3CC(CC(C3)C1)C2,inactive
21,O=[N+]([O-])c1ncn(CCn2ncnc2[N+](=O)[O-])n1,inactive
